Data as given in article PMC11157048 (Frontiers in Pharmacology, 2024).

What was measured:
[1] = system: human liver microsomes (HLM); experiment: Inhibition of aumolertinib metabolism in human liver microsomes (IC50, Ki); format: in vitro ADME
[2] = biological target: rat liver microsomes (RLM); experiment: Inhibition of aumolertinib metabolism in rat liver microsomes (screen, IC50, Ki); details: Lineweaver-Burk secondary plot

With `CCCc1nc2c(C)cc(-c3nc4ccccc4n3C)cc2n1Cc1ccc(-c2ccccc2C(=O)O)cc1` [Telmisartan] the inhibition mechanism [1] was “mixed (non-competitive and uncompetitive)”, the Ki ([1]; Lineweaver-Burk secondary plot) was 77.2 µM and the Ki [2] was 13.5 µM.
